# In paper PMC5132270 (Cancer Science, 2016):
# Entries after “also recorded” stand apart in the source; their conditions may differ. Read-outs that look alike come from different tables or passages of the source.
# How the values were obtained:
# ALK+ NSCLC [1] = settings: NP28761, patients who failed on crizotinib, different dose; cited from earlier work
# ALK+ NSCLC [2] = assay: Efficacy: tumor response; type: in vivo, human
# ALK+ NSCLC [3] = settings: cited from earlier work
# patients with ALK+ NSCLC = assay: Safety: treatment‐related adverse events, NCI‐CTCAE v4.03; type: in vivo, human
# [4] = tested on: ALK inhibitor‐naïve, ALK+ NSCLC; settings: Japanese patients, J‐ALEX; cited from earlier work
# ALK+ NSCLC [5] = settings: NP28673, patients who failed on crizotinib, different dose; cited from earlier work
# advanced ALK+ NSCLC = settings: phase I study; cited from earlier work
# [6] = FAS response‐evaluable population (n = 30)
# [7] = ALK inhibitor‐naïve patients, 300 mg twice daily
smiles,measurement,setting,value
CCc1cc2c(cc1N1CCC(N3CCOCC3)CC1)C(C)(C)c1[nH]c3cc(C#N)ccc3c1C2=O [alectinib],DCR,ALK+ NSCLC [1],79.7%
same,ORR,ALK+ NSCLC [1],47.8%
same,"duration of response, range",ALK+ NSCLC [2]; FAS or crizotinib‐failure populations,2.5–14.1 months
same,median duration of response,ALK+ NSCLC [2]; FAS population,not estimable
same,DCR,ALK+ NSCLC [2]; [6],83.3%
same,Median time to response,ALK+ NSCLC [2]; [6],1.2 months
same,median duration of response,ALK+ NSCLC [2]; crizotinib‐failure population,not estimable
same,Median PFS,"ALK+ NSCLC [2]; crizotinib‐failure population (n = 23), 95% CI 3.9−not reached",12.9 months
same,Median time to response,ALK+ NSCLC [2]; crizotinib‐failure response‐evaluable population (n = 20),1.2 months
same,Median PFS,"ALK+ NSCLC [2]; full analysis set (n = 35), 95% CI 11.1−not reached",13.9 months
same,PFS events,ALK+ NSCLC [2]; patients who had discontinued crizotinib for reasons other than PD,no events occurred
same,Patients with a PFS event,ALK+ NSCLC [2]; patients who had experienced PD with crizotinib,14 patients
same,patients achieving an objective response,ALK+ NSCLC [3]; [7],> 90%
same,"patients achieving an objective response, number/total",ALK+ NSCLC [3]; [7],43/46
same,2‐year PFS rate,ALK+ NSCLC [3]; follow‐up,76%
same,patients with complete response (CR),ALK+ NSCLC [3]; follow‐up,19.6%
same,Tolerability,"patients with ALK+ NSCLC; 300 mg twice daily, ALK+ NSCLC patients",well tolerated
same,"AST increased, treatment‐related, all grade",patients with ALK+ NSCLC; crizotinib failure (n = 23),4.3%
same,"AST increased, treatment‐related, all grade, number of patients",patients with ALK+ NSCLC; crizotinib failure (n = 23),1
same,"Blood bilirubin increased, treatment‐related, all grade",patients with ALK+ NSCLC; crizotinib failure (n = 23),8.7%
same,"Blood bilirubin increased, treatment‐related, all grade, number of patients",patients with ALK+ NSCLC; crizotinib failure (n = 23),2
same,"Constipation, treatment‐related, all grade",patients with ALK+ NSCLC; crizotinib failure (n = 23),30.4%
same,"Constipation, treatment‐related, all grade, number of patients",patients with ALK+ NSCLC; crizotinib failure (n = 23),7
same,"Dysgeusia, treatment‐related, all grade",patients with ALK+ NSCLC; crizotinib failure (n = 23),30.4%
same,"Dysgeusia, treatment‐related, all grade, number of patients",patients with ALK+ NSCLC; crizotinib failure (n = 23),7
same,"Neutrophil count decreased, treatment‐related, all grade",patients with ALK+ NSCLC; crizotinib failure (n = 23),17.4%
same,"Neutrophil count decreased, treatment‐related, all grade, number of patients",patients with ALK+ NSCLC; crizotinib failure (n = 23),4
same,"Rash, treatment‐related, all grade",patients with ALK+ NSCLC; crizotinib failure (n = 23),13.0%
same,"Rash, treatment‐related, all grade, number of patients",patients with ALK+ NSCLC; crizotinib failure (n = 23),3
same,"Vomiting, treatment‐related, all grade",patients with ALK+ NSCLC; crizotinib failure (n = 23),13.0%
same,"Vomiting, treatment‐related, all grade, number of patients",patients with ALK+ NSCLC; crizotinib failure (n = 23),3
same,"WBC count decreased, treatment‐related, all grade",patients with ALK+ NSCLC; crizotinib failure (n = 23),21.7%
same,"WBC count decreased, treatment‐related, all grade, number of patients",patients with ALK+ NSCLC; crizotinib failure (n = 23),5
same,Patients with alectinib discontinued due to AE,patients with ALK+ NSCLC; safety population,5.7%
same,Patients with alectinib interrupted due to AE,patients with ALK+ NSCLC; safety population,20%
same,Treatment‐related nausea,patients with ALK+ NSCLC; safety population,8.6%
same,"AST increased, treatment‐related, all grade",patients with ALK+ NSCLC; safety population (n = 35),14.3%
same,"AST increased, treatment‐related, all grade, number of patients",patients with ALK+ NSCLC; safety population (n = 35),5
same,"Blood bilirubin increased, treatment‐related, all grade",patients with ALK+ NSCLC; safety population (n = 35),14.3%
same,"Blood bilirubin increased, treatment‐related, all grade, number of patients",patients with ALK+ NSCLC; safety population (n = 35),5
same,"Constipation, treatment‐related, all grade",patients with ALK+ NSCLC; safety population (n = 35),31.4%
same,"Constipation, treatment‐related, all grade, number of patients",patients with ALK+ NSCLC; safety population (n = 35),11
same,"Dysgeusia, treatment‐related, all grade",patients with ALK+ NSCLC; safety population (n = 35),25.7%
same,"Dysgeusia, treatment‐related, all grade, number of patients",patients with ALK+ NSCLC; safety population (n = 35),9
same,"Neutrophil count decreased, treatment‐related, all grade",patients with ALK+ NSCLC; safety population (n = 35),22.9%
same,"Neutrophil count decreased, treatment‐related, all grade, number of patients",patients with ALK+ NSCLC; safety population (n = 35),8
same,"Rash, treatment‐related, all grade",patients with ALK+ NSCLC; safety population (n = 35),14.3%
same,"Rash, treatment‐related, all grade, number of patients",patients with ALK+ NSCLC; safety population (n = 35),5
same,Treatment‐related grade 4/5 adverse events,patients with ALK+ NSCLC; safety population (n = 35),No treatment‐related grade 4/5 events occurred; also recorded: No treatment‐related grade 4/5 AE were reported
same,"Vomiting, treatment‐related, all grade",patients with ALK+ NSCLC; safety population (n = 35),14.3%
same,"Vomiting, treatment‐related, all grade, number of patients",patients with ALK+ NSCLC; safety population (n = 35),5
same,"WBC count decreased, treatment‐related, all grade",patients with ALK+ NSCLC; safety population (n = 35),22.9%
same,"WBC count decreased, treatment‐related, all grade, number of patients",patients with ALK+ NSCLC; safety population (n = 35),8
same,Treatment‐related grade 4/5 adverse events,"patients with ALK+ NSCLC; safety population (n = 35), listed as Alectinib",no treatment‐related grade 4/5 AE
same,PFS with alectinib vs crizotinib,[4],superior PFS
same,DCR,ALK+ NSCLC [5],78.7%
same,ORR,ALK+ NSCLC [5],50.0%
C[C@@H](Oc1cc(-c2cnn(C3CCNCC3)c2)cnc1N)c1c(Cl)ccc(F)c1Cl [crizotinib],6‐month progression‐free survival (PFS) rate,advanced ALK+ NSCLC,72%
same,overall response rate (ORR),advanced ALK+ NSCLC,57%
